Biological target: T1, Cytochrome P450 1B1 (Homo sapiens, UniProt Q16678)
T1 sequence (Q16678 whole entry): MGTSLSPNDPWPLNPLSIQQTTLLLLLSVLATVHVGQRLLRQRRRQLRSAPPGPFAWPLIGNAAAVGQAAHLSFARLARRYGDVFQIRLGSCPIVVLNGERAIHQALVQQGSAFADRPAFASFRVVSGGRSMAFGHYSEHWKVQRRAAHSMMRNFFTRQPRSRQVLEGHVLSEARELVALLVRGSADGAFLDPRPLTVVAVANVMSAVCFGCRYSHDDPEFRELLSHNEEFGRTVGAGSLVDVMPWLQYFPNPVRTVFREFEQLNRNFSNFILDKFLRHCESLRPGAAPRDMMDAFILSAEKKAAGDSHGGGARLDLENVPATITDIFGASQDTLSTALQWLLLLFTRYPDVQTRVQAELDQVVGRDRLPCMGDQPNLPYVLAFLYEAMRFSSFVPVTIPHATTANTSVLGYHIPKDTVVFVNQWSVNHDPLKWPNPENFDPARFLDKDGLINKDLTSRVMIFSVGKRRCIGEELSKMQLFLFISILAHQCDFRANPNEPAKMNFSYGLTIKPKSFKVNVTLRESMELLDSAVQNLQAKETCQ
Experiment: Binding affinity to human C-terminal 4His-tagged CYP1B1 expressed in Escherichia coli DH5alpha assessed as spectral dissociation constant by spectrophotometric analysis
Settings: read-out: Ks

O=c1cc(-c2ccccc2)oc2c1ccc1ccccc12 [ALPHA-NAPHTHOFLAVONE]
Kd: 700 nM
